Data reported in patent US20130184338A1, “PHENYLPROPYL CARBAMATE DERIVATIVES FOR USE IN PREVENTING OR TREATING MULTIPLE SCLEROSIS” (Bio-Pharm Solutions Co., Ltd., priority 2011, published 2013).
Marks after values point to notes of the source that are not given here.

Tested on: male ICR mice
Assay: MES (Maximal Electroshock Seizure) test in mice
Conditions: 4 mice

Compound | MES test (po) Protection % (injection amount 100 mg/kg) | further results
C[C@H](OC(N)=O)[C@@H](O)c1ccccc1I [Compound 65, 1-(2-iodophenyl)-(S)-1-hydroxypropyl-(S)-2-carbamate] | – | MES test (po) Protection % (injection amount 50 mg/kg): 50^a (100%)
CCCC[C@H](OC(N)=O)[C@@H](O)c1ccccc1Cl | 100^a (75%) | –
CCCC[C@H](OC(N)=O)[C@@H](O)c1c(Cl)cccc1Cl | 100^a (75%) | –
C[C@H](OC(N)=O)[C@@H](O)c1ccccc1F [Compound 63, 1-(2-fluorophenyl)-(S)-1-hydroxypropyl-(S)-2-carbamate] | – | MES test (po) Protection % (injection amount 50 mg/kg): 50^a (100%)
CCCC[C@H](OC(N)=O)[C@@H](O)c1ccc(Cl)cc1Cl | 100^a (25%) | –
CCCCC(OC(N)=O)C(O)c1ccccc1Cl (racemic) | – | MES test (po) Protection % (injection amount 200 mg/kg): 200^a (100%)
CCCC[C@@H](OC(N)=O)[C@H](O)c1ccccc1Cl | – | MES test (po) Protection % (injection amount 200 mg/kg): 200^a (75%)
CC[C@H](OC(N)=O)[C@@H](O)c1ccccc1I [Compound 67, 1-(2-iodophenyl)-(S)-1-hydroxybutyl-(S)-2-carbamate] | 100^a (100%) | –
CCC(OC(N)=O)C(O)c1ccccc1Cl (racemic) [Compound 8, 1-(2-chlorophenyl)-1-hydroxybutyl-2-carbamate] | 100^a (100%) | –
